We go through one compound from patent publication US9730940B2, “Purine inhibitors of human phosphatidylinositol 3-kinase delta” (priority 2012, dated 2017).

Sequences of proteins named here, by UniProt entry; tags and fusion partners are left off.
UniProt P42336, whole entry, looked up: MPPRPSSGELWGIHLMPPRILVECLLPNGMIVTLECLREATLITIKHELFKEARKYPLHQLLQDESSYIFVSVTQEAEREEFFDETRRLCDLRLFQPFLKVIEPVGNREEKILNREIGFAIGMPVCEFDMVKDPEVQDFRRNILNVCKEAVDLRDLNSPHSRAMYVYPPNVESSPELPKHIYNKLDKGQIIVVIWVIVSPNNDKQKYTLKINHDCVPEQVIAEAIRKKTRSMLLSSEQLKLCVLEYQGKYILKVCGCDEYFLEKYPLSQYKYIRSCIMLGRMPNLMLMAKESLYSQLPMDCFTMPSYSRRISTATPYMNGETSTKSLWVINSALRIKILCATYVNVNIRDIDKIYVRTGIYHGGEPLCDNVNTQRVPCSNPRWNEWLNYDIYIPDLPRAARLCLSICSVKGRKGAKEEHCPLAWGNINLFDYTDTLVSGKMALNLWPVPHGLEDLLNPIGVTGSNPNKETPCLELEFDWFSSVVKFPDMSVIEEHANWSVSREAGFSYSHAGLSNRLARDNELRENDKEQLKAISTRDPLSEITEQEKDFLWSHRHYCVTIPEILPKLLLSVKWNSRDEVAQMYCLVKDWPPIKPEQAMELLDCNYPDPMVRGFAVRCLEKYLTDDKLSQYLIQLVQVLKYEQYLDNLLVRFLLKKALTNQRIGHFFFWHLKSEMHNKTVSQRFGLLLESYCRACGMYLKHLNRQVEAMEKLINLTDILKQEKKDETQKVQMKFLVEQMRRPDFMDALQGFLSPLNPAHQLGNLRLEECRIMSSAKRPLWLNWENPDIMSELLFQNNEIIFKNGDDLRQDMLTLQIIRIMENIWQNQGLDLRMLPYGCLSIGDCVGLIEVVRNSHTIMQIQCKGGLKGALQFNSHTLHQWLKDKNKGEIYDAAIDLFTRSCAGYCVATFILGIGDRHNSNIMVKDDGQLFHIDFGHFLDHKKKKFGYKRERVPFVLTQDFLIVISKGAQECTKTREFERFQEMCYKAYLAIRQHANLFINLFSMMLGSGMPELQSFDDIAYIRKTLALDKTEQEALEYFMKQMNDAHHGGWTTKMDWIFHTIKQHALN

This assay addresses PI3K-alpha (Homo sapiens (Human), UniProt P42336). The assay can be described thus: HTRF PI3K biochemical assay, alpha isoform. The following applies: ratio PI3K-alpha IC50 value/PI3K-delta IC50 value. The source says:
HTRF PI3K Biochemical Assay to Measure Intrinsic Potency of Compound Inhibitors
The PI3-Kinase biochemical assays were developed to measure the intrinsic potency and compound dependent inhibition of the alpha, beta, delta, and gamma PI3K isoform enzymes. This assay was developed and further optimized from a kit produced by Upstate (Millipore catalog #33-047) and has been configured for HTS and SAR screening. Briefly, this procedure exploits the exquisite specificity and high affinity binding of enzyme reaction substrate phosphatidyl(3,4,5)triphosphate (PIP3) to the GRP1 pleckstrin homology (PH) domain to generate the signal. In the absence of PIP3, an HTRF (Homogeneous Time-Resolved Fluorescence energy transfer) complex is formed consisting of europium (Eu)-labeled anti-GST, GST tagged GRP1-PH domain, biotin-PIP3 and streptavidin conjugated APC. […]
The loss of the HTRF signal is due to the displacement of biotinylated-PIP3 from the PH domain by the PI3K-dependent conversion of PIP2 to PIP3. […] All data were calculated using the ratio of acceptor (APC) to donor (Europium) fluorescence in each well of the assay plate. […] An IC50 was then calculated fitting the % inhibition data to the equation: % inhibition=min+(Max−min)/1+([inhibitor]/IC50)^n) where min is the % inhibition […], max is the signal in DMSO control, and n is the Hill slope.
In general terms: Time-resolved FRET reads energy transfer from a long-lived donor to a nearby acceptor.

In the case of `CCn1c(-c2cnc(C)nc2)nc2c(OC3CC4CCC3N4C(=O)C3CC3)ncnc21` (single isomer, unassigned) [Compound 2-139, cyclopropyl([(1R,2R,4S) or (1S,2S,4R)]-2-((9-ethyl-8-(2-methylpyrimidin-5-yl)-9H-purin-6-yl)oxy)-7-azabicyclo[2.2.1]heptan-7-yl)methanone], the “Relative Selectivity versus PI3Kalpha” value is given as above 10.
